Test results taken from publication PMC9103596, “The inhibitory effect of boric acid on hypoxia-regulated tumour-associated carbonic anhydrase IX” (Journal of Enzyme Inhibition and Medicinal Chemistry, 2022).
Like-named read-outs stand apart in the source and are kept apart here.

Assays:
[1] = tested on: CA IX levels in A375 cells; conditions: treated at IC50 concentration for 24 h, ELISA
[2] = tested on: CA IX levels in HT29 cells; conditions: treated at IC50 concentration for 24 h, ELISA

CC(=O)Nc1nnc(S(N)(=O)=O)s1 [AAZ, acetazolamide, reference compound]
CA IX levels compared to control ([1]; A375 hypoxic cell cultures): significantly reduced
CA IX levels compared to control ([1]; A375 normoxic cell cultures): significantly reduced
CA IX levels compared to control ([2]; HT29 hypoxic cell cultures): decrease
CA IX levels compared to control ([2]; HT29 normoxic cell cultures): significantly reduced
